Source: patent US11634702B2, “Cell signaling pathway activation by local AC electric field” (ARIZONA BOARD OF REGENTS ON BEHALF OF ARIZONA STATE …, priority 2018, dated 2023)

What was measured:
[1] = tested on: EGFR-Ras-ERK signaling pathway in MCF10A cells; test: ERK activation by AC EF stimulation (ERKTR reporter) in blocker tests; type: cell-based; conditions: cetuximab 100 μg/mL, ERKTR ratio
[2] = tested on: EGFR-Ras-ERK signaling pathway in MCF10A cells; test: ERK activation by EGF chemical stimulation (ERKTR reporter), control groups of the blocker tests; type: cell-based; conditions: cetuximab 100 μg/mL, EGF 2 ng/mL, 96-well plate

cetuximab was tested, and the “effect on ERK activation under AC EF stimulation” value [1] was “the AC EF could still activate ERK, although with an overall reduced contrast in the fluorescent signals” and the “effect on ERK activation by EGF stimulation” value [2] was “blocked ERK activation”.
